Experimental data: patent publication US20110110932A1, “COMBINATION TREATMENT FOR OCULAR DISEASES” (OPHTHOTECH CORP., priority 2009, published 2011)
Where two headings read alike, the source gives them in different places.

Chains of the proteins cited; added tags and fusions are not shown. Residues count along the entry.
UniProt P08648, 895-1049 limits assumed: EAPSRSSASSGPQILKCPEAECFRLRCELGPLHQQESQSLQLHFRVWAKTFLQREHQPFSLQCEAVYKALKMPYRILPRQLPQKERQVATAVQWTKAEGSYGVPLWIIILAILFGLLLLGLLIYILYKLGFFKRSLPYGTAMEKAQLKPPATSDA
UniProt P08648, 42-894 limits assumed: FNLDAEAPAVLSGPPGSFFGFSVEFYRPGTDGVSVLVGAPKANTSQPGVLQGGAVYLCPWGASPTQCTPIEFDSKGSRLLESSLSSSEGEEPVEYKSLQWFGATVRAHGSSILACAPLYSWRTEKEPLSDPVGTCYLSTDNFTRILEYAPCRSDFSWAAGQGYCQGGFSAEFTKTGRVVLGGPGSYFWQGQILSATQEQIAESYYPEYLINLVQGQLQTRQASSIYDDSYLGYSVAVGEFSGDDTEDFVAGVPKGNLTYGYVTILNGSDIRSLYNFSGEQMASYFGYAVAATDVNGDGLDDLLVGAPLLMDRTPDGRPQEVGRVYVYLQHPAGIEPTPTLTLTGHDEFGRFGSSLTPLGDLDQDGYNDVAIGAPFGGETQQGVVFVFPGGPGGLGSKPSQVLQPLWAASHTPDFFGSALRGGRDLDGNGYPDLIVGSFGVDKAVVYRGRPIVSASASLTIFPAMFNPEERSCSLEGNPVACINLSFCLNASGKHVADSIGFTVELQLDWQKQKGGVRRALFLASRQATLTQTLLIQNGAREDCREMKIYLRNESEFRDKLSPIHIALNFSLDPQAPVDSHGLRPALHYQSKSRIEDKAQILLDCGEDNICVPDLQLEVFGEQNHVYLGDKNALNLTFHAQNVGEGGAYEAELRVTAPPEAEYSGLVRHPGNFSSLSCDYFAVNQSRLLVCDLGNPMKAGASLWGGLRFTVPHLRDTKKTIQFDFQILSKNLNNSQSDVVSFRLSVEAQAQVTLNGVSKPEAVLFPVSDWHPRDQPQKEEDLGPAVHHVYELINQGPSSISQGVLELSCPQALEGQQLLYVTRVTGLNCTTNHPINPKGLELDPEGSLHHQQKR

Experiments:
[1] = test system: subjects with wet AMD; assay: Dose-escalating multicenter clinical study of intravitreal volociximab in combination with ranibizumab; assay type: in vivo, human; conditions: initial ten subjects, two doses in combination with ranibizumab
Source text: In one embodiment, the signs and symptoms associated with an ocular disorder (e.g., macular degeneration) may be monitored by assessment via Optical Coherence Tomography (OCT). […] OCT relies upon differential reflections of light to produce 2-dimensional cross-sections of the retina. OCT images are obtained rapidly and have a spatial resolution of approximately 8 mcm. OCT is especially useful for calculating retinal thickness. In another embodiment, the signs and symptoms associated with an ocular disorder (e.g., macular degeneration) may be monitored by assessment via a visual acuity (VA) test. The visual acuity test is used to determine the smallest letters a person can read on a standardized chart or card held 14-20 feet away. This test is done on each eye, one at a time. If necessary, it is then repeated while the subject wears glasses or contacts.
Bulk 25 mg/mL volociximab (also known as M200; PDL BioPharma) is aseptically filled into clinical use vials. A 10 mg/mL solution is prepared by dilution of the 25 mg/mL bulk using the same formulation solution. Stock ranibizumab (Genentech) at 10 mg/mL is aseptically filled into clinical use vials.
This is a dose-escalating, uncontrolled, multiple-dose multicenter study including subfoveal lesions of any subtype secondary to AMD. […]

[2] = test system: endothelial cells; conditions: cited from earlier work
[3] = test system: choroidal neovascularization (CNV); conditions: rabbits, CNV induced by VEGF/bFGF pellets; cited from earlier work
[4] = test system: choroidal neovascularization (CNV); conditions: cynomolgus monkeys, laser induced CNV; cited from earlier work
[5] = test system: human umbilical vein endothelial cell (HUVEC); conditions: in vitro; cited from earlier work
[6] = test system: human umbilical vein endothelial cell (HUVEC); conditions: in vitro; cited from earlier work; remark: listed apart in the source
[7] = target: α5β1 integrin (Homo sapiens, UniProt P05556+P08648); conditions: cited from earlier work

volociximab: high affinity chimeric monoclonal antibody which inhibits the binding between α5β1 integrin and fibronectin (SEQ ID NO: 3, 4)
safety profile [1]: favorable safety profile
apoptosis induction ([2]; actively proliferating endothelial cells): induces apoptosis
apoptosis induction ([2]; resting endothelial cells): not in resting endothelial cells
anti-angiogenic activity [3]: significant anti-angiogenic activity
anti-angiogenic activity [4]: significant anti-angiogenic activity
HUVEC proliferation [5]: inhibition
HUVEC tube formation [6]: inhibition
binding between α5β1 integrin and fibronectin [7]: inhibits the binding
